In paper PMC3726442, “Relationship between Genotypes Sult1a2 and Cyp2d6 and Tamoxifen Metabolism in Breast Cancer Patients” (PLoS ONE, 2013):

Experiment: Plasma concentrations of tamoxifen and its metabolites in breast cancer patients on tamoxifen, by HPLC-tandem mass spectrometry

mean plasma concentration (±SD) (all samples analyzed, n = 125, before daily 20 mg TAM dose): 9.01 ± 7.13 ng/mL | plasma concentration, mean ±SD (genotype SULT1A1 *2/*2, n = 15): 9.20 ± 6.80 ng/mL | plasma concentration, median (genotype SULT1A1 *2/*2, n = 15): 8.20 ng/mL | plasma concentration, range (genotype SULT1A1 *2/*2, n = 15): (1.47–29.54) ng/mL | plasma concentration, mean ±SD (genotype SULT1A1 wt/*2, n = 46): 9.85 ± 7.17 ng/mL | plasma concentration, median (genotype SULT1A1 wt/*2, n = 46): 7.98 ng/mL | plasma concentration, mean ±SD (genotype SULT1A1 wt/wt, n = 60): 8.44 ± 7.30 ng/mL | plasma concentration, median (genotype SULT1A1 wt/wt, n = 60): 6.40 ng/mL | plasma concentration, mean ±SD (genotype SULT1A2 *2/*2, n = 16): 9.00 ± 6.94 ng/mL | plasma concentration, median (genotype SULT1A2 *2/*2, n = 16): 7.52 ng/mL | plasma concentration, range (genotype SULT1A2 *2/*2, n = 16): (2.42–29.54) ng/mL | plasma concentration, median (genotype SULT1A2 *2/*3, n = 13): 11.20 ng/mL | plasma concentration, range (genotype SULT1A2 *2/*3, n = 13): (3.25–28.84) ng/mL | plasma concentration, mean ±SD (genotype SULT1A2 *3/*3, n = 5): 7.85 ± 5.18 ng/mL | plasma concentration, range (genotype SULT1A2 *3/*3, n = 5): (3.25–16.45) ng/mL | plasma concentration, mean ±SD (genotype SULT1A2 wt/*2, n = 33): 11.38 ± 9.34 ng/mL | plasma concentration, median (genotype SULT1A2 wt/*2, n = 33): 7.62 ng/mL | plasma concentration, range (genotype SULT1A2 wt/*2, n = 33): (2.12–35.90) ng/mL | plasma concentration, mean ±SD (genotype SULT1A2 wt/*3, n = 16): 8.66 ± 7.13 ng/mL | plasma concentration, median (genotype SULT1A2 wt/*3, n = 16): 7.20 ng/mL | plasma concentration, range (genotype SULT1A2 wt/*3, n = 16): (1.06–26.98) ng/mL | plasma concentration, mean ±SD (genotype SULT1A2 wt/wt, n = 38): 6.02 ± 3.28 ng/mL | plasma concentration, median (genotype SULT1A2 wt/wt, n = 38): 5.70 ng/mL | plasma concentration, range (genotype SULT1A2 wt/wt, n = 38): (1.47–14.95) ng/mL | plasma concentration, mean ±SD (genotype SULT1E1 *2/*2, n = 5): 5.91 ± 1.98 ng/mL | plasma concentration, median (genotype SULT1E1 *2/*2, n = 5): 5.70 ng/mL | plasma concentration, range (genotype SULT1E1 *2/*2, n = 5): (3.20–8.71) ng/mL | plasma concentration, mean ±SD (genotype SULT1E1 wt/*2, n = 28): 8.67 ± 6.39 ng/mL | plasma concentration, median (genotype SULT1E1 wt/*2, n = 28): 6.20 ng/mL | plasma concentration, range (genotype SULT1E1 wt/*2, n = 28): (2.87–29.54) ng/mL | plasma concentration, mean ±SD (genotype SULT1E1 wt/wt, n = 88): 9.40 ± 7.55 ng/mL
Substance: 4-hydroxy-tamoxifen [4-OH-tamoxifen]
